In ChEMBL document CHEMBL1833821, “Defining the structural parameters that confer anticonvulsant activity by the site-by-site modification of (R)-N'-benzyl 2-amino-3-methylbutanamide” (J Med Chem, 2011):

Organism: Rattus norvegicus
Test: Protective index, ratio of TD50 for albino Sprague-Dawley rat to ED50 for albino Sprague-Dawley rat by maximal electroshock seizures test
Type: functional
Outline: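 Rat protective index calculated as behavioral toxicity TD50 divided by MES ED50, both after oral dosing of male Sprague-Dawley rats at the NINDS ASP.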

## O=C1NC(=O)C(c2ccccc2)(c2ccccc2)N1 [PHENYTOIN]
  PI: >120
